Values of other authors as cited in patent US8476408B2, “Unacylated ghrelin and analogs as therapeutic agents for vascular remodeling in diabetic patients and treatment of cardiovascular disease” (Alize Pharma SAS, priority 2008, dated 2013).

The chains behind the UniProt entries cited, without tags or fusion partners.
UniProt Q92847, whole entry: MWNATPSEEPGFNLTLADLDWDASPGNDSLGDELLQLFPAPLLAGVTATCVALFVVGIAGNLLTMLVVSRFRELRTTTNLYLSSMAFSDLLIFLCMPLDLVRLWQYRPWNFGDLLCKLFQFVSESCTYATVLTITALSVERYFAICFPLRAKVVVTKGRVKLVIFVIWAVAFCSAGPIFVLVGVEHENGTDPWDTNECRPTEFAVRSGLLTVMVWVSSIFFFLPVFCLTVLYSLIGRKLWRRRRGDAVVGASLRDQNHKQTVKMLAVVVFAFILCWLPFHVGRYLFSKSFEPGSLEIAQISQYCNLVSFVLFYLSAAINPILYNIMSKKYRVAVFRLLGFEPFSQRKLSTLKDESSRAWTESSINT

Target: GHSR-1a (Homo sapiens, UniProt Q92847)
Conditions: cited from earlier work

Q: For “des Gln-14 Ghrelin: isoform of ghrelin-28, a 27 amino acid peptide possessing serine 3 modification by n-octanoic acid (GSSFLSPEHQRVQRKESKKPPAKLQPR; n-octanoyl on Ser3; listed as Homo sapiens) [reference compound]”, which “binding to GHSR-1a” value is on record?
A: The value was “binds to GHSR-1a with similar binding affinity”.
